{"sequences": {"note": "Protein sequences, listed by entry. Tags and fused reporters are not part of them.", "UniProt Q99720, whole entry": "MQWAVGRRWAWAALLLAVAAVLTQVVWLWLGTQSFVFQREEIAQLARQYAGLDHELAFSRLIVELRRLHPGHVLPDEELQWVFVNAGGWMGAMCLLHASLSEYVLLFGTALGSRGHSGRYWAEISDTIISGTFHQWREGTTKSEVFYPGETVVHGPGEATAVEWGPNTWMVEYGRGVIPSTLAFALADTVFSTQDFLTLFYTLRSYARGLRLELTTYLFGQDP"}, "source": "paper PMC11462627", "about": "“SAL0114: a novel deuterated dextromethorphan-bupropion combination with improved antidepressant efficacy and safety profile” (Frontiers in Pharmacology, 2024)", "target": "T1, Sigma-1 receptor (Homo sapiens, UniProt Q99720)", "T1 construct": "to the Sigma-1 receptor (Sigma-1R) of human-derived Jurkat cells; host or cells: Jurkat cells", "experiment": "Sigma 1 receptor radioligand binding (3H-pentazocine, Jurkat cells)", "settings": "3H-pentazocine competition, human-derived Jurkat cells, mean, n = 2", "protocol": "Competitive binding of the samples and ^3H-pentazocine to the Sigma-1 receptor (Sigma-1R) of human-derived Jurkat cells was assessed using a radioligand binding method."}
{"substance": "deuterated dextromethorphan [deDM]", "values": [{"measurement": "Ki", "result": 1720, "unit": "nM"}]}
